Assay results taken from ChEMBL document CHEMBL3085755, “Synthesis of 3-spiromorpholinone androsterone derivatives as inhibitors of 17β-hydroxysteroid dehydrogenase type 3” (Bioorg Med Chem Lett, 2013).

Target: T1, 17-beta-hydroxysteroid dehydrogenase type 3 (Rattus norvegicus) (UniProt O54939)
T1 sequence (whole entry): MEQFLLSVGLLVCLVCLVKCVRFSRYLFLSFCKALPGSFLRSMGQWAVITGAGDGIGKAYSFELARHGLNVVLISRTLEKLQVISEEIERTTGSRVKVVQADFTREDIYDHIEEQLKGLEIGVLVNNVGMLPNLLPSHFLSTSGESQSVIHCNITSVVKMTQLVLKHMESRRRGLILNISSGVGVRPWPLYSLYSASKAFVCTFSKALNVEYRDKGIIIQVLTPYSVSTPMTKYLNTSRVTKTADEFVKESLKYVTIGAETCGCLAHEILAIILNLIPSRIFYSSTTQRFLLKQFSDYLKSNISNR
Assay: Inhibition of 17beta-HSD3 in rat testes microsomal fraction using [14C]-4-androstene-3,17-dione as substrate assessed as testosterone formation at 1 uM after 2 hrs by thin layer chromatography
Assay type: microsomes
Conditions: Testis
Method in brief: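 Rat testis microsomes supplying 17β-HSD3, converting [14C]-4-androstene-3,17-dione (50 nM) into testosterone. Inhibition of this transformation is measured at a fixed inhibitor concentration and expressed as mean ± SD of triplicate.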

**Q.** With `CC1CN(S(=O)(=O)c2ccccc2C(F)(F)F)C(C)CN1C[C@@]1(O)CC[C@@]2(C)[C@@H](CC[C@@H]3[C@@H]2CC[C@]2(C)C(=O)CC[C@@H]32)C1` (stereo partly specified) as the compound, how does the inhibition read?
**A.** Its inhibition is 92.1%.
